VDR inh = blocks the human vitamin D receptor. 0.93% of 400,000 active. VDR-SRC2-3 peptide fluorescence polarization, 2 h. Potency, µM, for the others: max response, negative = inhibition, most hits filed as inhibitors. P11473; further: potency means the concentration at half of the fitted maximal effect; on the % scale 0 is the no-effect control and ±100 the full control effect
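Fluorescence polarization assay of small-molecule disruption of VDR binding to coregulator peptide SRC2-3. Compounds and controls pin-transferred, then read after 2 h incubation at ambient room temperature.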
Rango complex inh = prevents formation of the Rango-importin beta complex. Q14974. Rango CFP/YFP FRET sensor + importin beta, 45 min. Potency, µM (highest dose often 92.2 µM), without a hit: at the highest dose inhibition of complex formation. 0.031% of 340,000 active; calls by dose curve;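 further: potency means the concentration at half of the fitted maximal effect; 0% = DMSO wells and 100% = buffer wells lacking importin beta; nearly all actives have a fitted effect of over 15% in size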
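Inhibition scored from the CFP 486 nm/YFP 530 nm FRET ratio 45 min after adding 0.125 microM importin beta to 50 nM Rango biosensor preincubated 5 min with compound (room temperature, PBS with DTT, Tween-20, BSA). No-importin wells as positive control.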
KAT2A inh = inhibitors of human GCN5L2 histone acetyltransferase. Q92830. GCN5L2 HAT assay, ThioGlo1 CoA-SH fluorescence. Potency, µM (doses to about 58.9 µM), without a hit: at the highest dose activity change, negative = inhibition, usual class: inhibitors. 0.21% of 390,000 active; further: potency means the concentration at half of the fitted maximal effect; on the % scale 0 is the no-effect control and ±100 the full control effect
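Titration-based screen in which CoA formation is detected via maleimide probe ThioGlo1 (50uM) turning fluorescent on thiol reaction; substrates H3(1-25) 75uM and acetyl-CoA 70uM, GCN5L2 20nM, 20 min incubation at room temperature.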
Rango release inh = inhibition of RanGTP-driven Rango-importin beta dissociation | O95149+P62826 | 0.071% of 340,000 active | Biochemical FRET Rango-importin beta, RanGTP-induced dissociation | Potency, µM (series often up to 46.1 µM), inactives show at the highest dose activity change, negative = inhibition; calls by dose curve; further: potency means the concentration at half of the fitted maximal effect; % of control where 0% means no effect; nearly all actives have a fitted effect of over 45% in size
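FRET read at 45 min, room temperature: inhibitors block the CFP/YFP signal rise when RanGTP (0.6 uM Ran, 2 mM GTP, 0.2 uM RCC1) frees Rango (0.1 uM) from importin beta (0.25 uM). Pre-read after 5 min compound exposure flags interference.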
PI5P4K alpha inh = inhibitors of human PI5P4K alpha. PI5P4Kalpha enzyme, ADP-Glo luminescence, 60 min; active compounds read low. 1.2% of 330,000 active. max response, %. P48426; active means max response of -50% or lower; inconclusive means between -30% and -50%; inactive means -30% or higher; further: value at the top dose of about 77 µM; on the % scale 0 is the no-effect control and ±100 the full control effect
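PI5P4Kalpha ADP-Glo assay; 5 microM ATP final; 60 min RT reaction; HEPES pH 7.4/EGTA/CHAPS, 5% DMSO; controls lacking substrate or enzyme; luminescent end-point.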
PLK1 PBD inh = inhibitors of human PLK1 polo-box domain binding | Plk1 PBD binding of FITC phosphopeptide, fluorescence polarization | Potency, µM, for the others: max response, negative = inhibition, usual class: inhibitors | 2.8% of 360,000 active; further: potency means the concentration at half of the fitted maximal effect; series mostly up to about 57 µM; on the % scale 0 is the no-effect control and ±100 the full control effect; nearly all actives have a fitted effect of over 65% in size
Active calls of the source: *; ? = inconclusive; . = not tested or not shown. Most compounds without a hit are left out; they make up all but 3.6% or so of the library. Unless noted, the call rests on the fitted dose curve; in most records, active means well fitted curve in the direction sought with a large enough effect; inconclusive means small, poorly fitted or top-dose-only effect, or another doubt; inactive means no such curve, though single readings can be large; an effect the other way counts as inactive or inconclusive.

no.	smiles	VDR inh	Rango complex inh	KAT2A inh
1	COc1c2c(c(C(=O)/C=C/C(C)=C/c3ccccc3)c3c1OCO3)CCN(C)C2	45µM*	.	.
2	CCOc1ccc(CNC(=O)Cn2ncc3c(=O)oc4ccc(C)cc4c32)cc1	-20%	.	-3%
3	CCOc1ccccc1C(=O)NC1(C(F)(F)F)C(=O)Nc2c1c(=O)[nH]c(=O)n2-c1ccccc1 (stereo not drawn)	-19%	.	4%
4	CCOc1ccc(S(=O)(=O)N/N=C(\C)c2ccc(OC)cc2OC)cc1	?	-3%	-15%
5	COc1ccc(/C(C)=N/NC(=O)c2ccccc2OCc2ccccc2)c(OC)c1	?	-2%	-7%
6	COc1ccc(/C=N/NC(=O)c2ccccc2OCc2ccccc2)c(OC)c1	3%	-3%	-10%
7	COc1cccc(NC(=O)Cn2c(=O)n(-c3ccc(C)cc3)c(=O)c3ccccc32)c1	-4%	.	-3%
8	O=S(=O)(Nc1cccc2nsnc12)c1ccccc1	7%	29µM*	2%
9	CC1CC=CC2C1C(=O)N(Cc1ccccc1)C2c1ccc(-c2ccc(N(C)C)cc2)cc1F (stereo not drawn)	-9%	.	.
10	CC1=CC(=O)N(c2cccc3c(N4C(=O)C=C(C)C4=O)cccc23)C1=O	-11%	0%	.
11	Cc1oc(-c2ccc(F)cc2)nc1CN(Cc1ccccn1)CC1CCCO1 (stereo not drawn)	?	?	-2%
12	O=c1cc(S(=O)(=O)Cc2ccccc2)[nH]c(=O)[nH]1	-10%	-1%	.
13	COc1ccc2c(c1)C(=O)[C@H](OC(=O)NCCc1ccc(OC)c(OC)c1)[C@@H](c1ccc(OC)c(Br)c1)O2	-2%	.	.
14	Cc1cnc(NC(=O)CCNC(=O)c2ccc([N+](=O)[O-])cc2)s1	-19%	0%	-11%
15	Cc1csc(NC(=O)CCNC(=O)c2ccc([N+](=O)[O-])cc2)n1	-8%	9%	-19%

no.	Rango release inh	PI5P4K alpha inh	PLK1 PBD inh
1	.	.	.
2	.	.	.
3	.	.	.
4	-8%	-27	15µM*
5	-7%	?	19µM*
6	-8%	-8	-10%
7	.	.	.
8	25%	.	-6%
9	.	.	.
10	14%	-63*	-29%
11	-4%	-21	30µM*
12	-2%	-66*	-20%
13	.	.	.
14	13%	-2	27µM*
15	-8%	-3	-9%

Among those listed so far, these have a halogen.
no.	smiles	VDR inh	Rango complex inh	KAT2A inh
3	CCOc1ccccc1C(=O)NC1(C(F)(F)F)C(=O)Nc2c1c(=O)[nH]c(=O)n2-c1ccccc1 (stereo not drawn)	-19%	.	4%
9	CC1CC=CC2C1C(=O)N(Cc1ccccc1)C2c1ccc(-c2ccc(N(C)C)cc2)cc1F (stereo not drawn)	-9%	.	.
11	Cc1oc(-c2ccc(F)cc2)nc1CN(Cc1ccccn1)CC1CCCO1 (stereo not drawn)	?	?	-2%
13	COc1ccc2c(c1)C(=O)[C@H](OC(=O)NCCc1ccc(OC)c(OC)c1)[C@@H](c1ccc(OC)c(Br)c1)O2	-2%	.	.

no.	Rango release inh	PI5P4K alpha inh	PLK1 PBD inh
3	.	.	.
9	.	.	.
11	-4%	-21	30µM*
13	.	.	.

The results go on.
no.	smiles	VDR inh	Rango complex inh	KAT2A inh
16	COc1ccc2c(c1)CCCC(Br)C2=O (stereo not drawn)	?	2%	.
17	COc1ccc2c(c1)CCC1(C)CC(=O)C(Br)=C21 (stereo not drawn)	.	.	.
18	COc1ccc(C(=O)CN2CCN(CCN3C(=O)c4cccc5cccc(c45)C3=O)CC2)cc1	?	?	.
19	O=C(Nc1ccc(Br)cc1)N1CCCCCCC1	8%	-5%	?
20	CC1CC(C)CN(C(=O)Nc2ccc(Br)cc2)C1 (stereo not drawn)	-12%	-4%	-7%
21	S=C(NC1CCCCC1)c1ccc2c(c1)OCO2	-19%	3%	-5%
22	CCOc1ccc(C(=S)NC2CCCCC2)cc1OC	50µM*	-5%	1%
23	CCOC(=O)c1c(-c2ccc(C)cc2C)csc1NC(=O)c1ccccc1Cl	?	.	16%
24	CC(NC(=O)/C(C#N)=C/c1ccc([N+](=O)[O-])o1)c1ccccc1 (stereo not drawn)	25µM*	?	-19%
25	CCOC(=O)c1ccn(-c2nc(-c3cccc(OC)c3)cc(C(F)(F)F)n2)n1	-12%	.	-5%
26	COc1ccc(S(=O)(=O)NC(=O)C2(C)CCN2C(=O)Cc2ccc(-c3ccccc3)cc2)cc1 (stereo not drawn)	.	.	.
27	CC1(C(=O)NS(=O)(=O)c2ccc3ccccc3c2)CCN1C(=O)Cc1ccc(-c2ccccc2)cc1 (stereo not drawn)	.	.	.
28	CC1(C(=O)NS(=O)(=O)Cc2cccc(Cl)c2)CCN1C(=O)Cc1ccc(-c2ccccc2)cc1 (stereo not drawn)	.	.	.
29	Cc1cc(C)nc(SCC(=O)NN=C2CCCC2)n1	?	-2%	-8%
30	O=C(CSc1ncccn1)NN=C1CCCCCCC1	-26%	12%	-1%

no.	Rango release inh	PI5P4K alpha inh	PLK1 PBD inh
16	-15%	-19	11µM*
17	.	1	5%
18	28%	-24	19µM*
19	-10%	2	-18%
20	0%	0	30µM*
21	-24%	.	19µM*
22	-11%	.	9.5µM*
23	.	.	.
24	?	?	24µM*
25	.	.	.
26	.	2	-2%
27	.	6	42µM*
28	.	10	67µM*
29	1%	-50*	6.7µM*
30	3%	-4	-2%

Later entries.
no.	smiles	VDR inh	Rango complex inh	KAT2A inh
31	Cc1cc(C)nc(SCC(=O)N/N=C/c2cccc([N+](=O)[O-])c2)n1	79µM*	4%	1%
32	Cc1ccc2sc(NNC(=O)c3cc(=O)c4ccccc4o3)nc2c1C	7.9µM*	-2%	9%
33	COc1ccc2nc(NNC(=O)c3cc(=O)c4ccccc4o3)sc2c1	32µM*	0%	-23%
34	O=C(Nc1ccc(O)c(-c2nc3ccccc3s2)c1)c1cc(=O)c2ccccc2o1	1%	4%	0%
35	O=C(NNc1nc2c(F)cccc2s1)c1cc(=O)c2ccccc2o1	?	6%	-19%
36	Cc1cccc2sc(NNC(=O)c3cc(=O)c4ccccc4o3)nc12	?	3%	-9%
37	Cc1cccc2sc(NC(=O)C3CCCO3)nc12 (stereo not drawn)	-5%	1%	-4%
38	Cc1nc(C)c(C(=O)Nc2nc3c(C)cccc3s2)o1	5%	?	-18%
39	Cc1ccc(C)c(NC(=O)Cn2c(SCC(=O)NCc3ccccc3)nc3ccccc32)c1	2%	.	-4%
40	O=C1C2=C(NC(=S)NC2c2ccc(Cl)cc2)NC(c2ccc(Cl)cc2)N1c1ccc(Cl)cc1 (stereo not drawn)	6%	-7%	-28%
41	COc1cc(NC(=O)c2cc3cc4ccc(C)cc4nc3o2)cc(OC)c1OC	-6%	.	-5%
42	Cc1ccc(NC(=O)c2cccc(NC(=O)/C=C/c3ccco3)c2)cc1C	13%	-2%	6%
43	Cc1cc(C(=O)NNC(=O)/C=C/c2ccco2)c(C)o1	?	?	-6%
44	Cc1ccc(NC(=O)N/C=C/c2ccco2)cc1C	-2%	?	9%
45	COc1ccccc1/C=C/C(=O)NNC(=O)c1cc(C)oc1C	?	1%	-14%
46	Cc1cccc(C(=O)Nc2ccc(C(=O)N/N=C/c3ccco3)cc2)c1	-25%	4%	.
47	CC(C)c1nn2c(=O)cc(COC(=O)c3cccs3)nc2s1	2%	.	4%

no.	Rango release inh	PI5P4K alpha inh	PLK1 PBD inh
31	-5%	-24	21µM*
32	-2%	?	-16%
33	-5%	-76*	-12%
34	-21%	-1	-19%
35	-5%	-51*	-5%
36	-27%	-52*	?
37	4%	.	-16%
38	-22%	.	24µM*
39	.	.	.
40	-14%	-52*	-2%
41	.	.	.
42	5%	-64*	-9%
43	-21%	?	24µM*
44	-26%	-57*	4%
45	6%	1	-14%
46	-3%	-51*	21µM*
47	.	.	.

Assay outcomes from PubChem.
